Test results published in PubChem BioAssay AID2101 (National Center for Advancing Translational Sciences (NCATS), 2009).
Where “and” joins values, the source holds several entries; their conditions need not be identical. Equal values may be shown once. Only a part is listed here, and it is no random draw. Records with an inconclusive call do not appear. Calls of active or inactive are those of the source. The call rests on the fitted dose curve; in most records, active means well fitted inhibition curve with a large enough effect; inconclusive means small, poorly fitted or top-dose-only effect, or effect the other way, or another doubt; inactive means no such curve, though single readings can be large or run the other way.

What follows are compounds tested against Lysosomal acid glucosylceramidase (Homo sapiens) (UniProt P04062) (assay: qHTS Assay for Inhibitors and Activators of N370S glucocerebrosidase as a Potential Chaperone Treatment of Gaucher Disease). Conditions: N370S GC spleen homogenate, 4MU-glucoside fluorescence; at 59.4 µM (top of the series) unless noted.
Excerpt: NIH Chemical Genomics Center [NCGC]
NIH Molecular Libraries Probe Production Centers Network [MLPCN]
Assay Submitter (PI): Wei Zheng
Glucocerebrosidase (GC) catalyzes the hydrolysis of beta-glucocerebroside to glucose and ceramide in lysosomes. Mutations in the glucocerebrosidase gene result in Gaucher disease, an autosomal recessive lysosomal storage disorder. Many of the mutations encountered in patients with Gaucher disease are missense alterations that may cause misfolding, decreased stability and/or mistrafficking of this lysosomal protein. […] These inhibitors include iminosugar analogs and three non-iminosugar inhibitors identified from a previous HTS of 62,000 compounds with the wild type recombinant enzyme. However, the enhancement of enzyme activity by the chaperone action of an enzyme inhibitor must be balanced against the direct inhibition of the enzyme. An enzyme activator could also function as a chaperone by binding to the enzyme and helping to correct its misfolding and mistrafficking. While activators for GC have not yet been identified, they may have better therapeutic potential than inhibitors. Therefore the discovery and development of chemical activators may provide a new strategy for the chaperone therapy.
We have optimized a new assay using N370S mutant GC derived from the spleen of a Gaucher patient. […] In addition, the MLPCN compound library has expanded, which increases the chance of finding new and better probes.
NCGC Assay Protocol Summary:
This is a fluorogenic enzyme assay with 4-methylumbelliferyl-beta-D-glucopyranoside as the substrate and N370S glucocerebrosidase from human spleen homogenate as the enzyme preparation. Upon the hydrolysis of this fluorogenic substrate, the resulting product, […] which can be detected by a standard fluorescence plate reader. Data were normalized to the controls for basal activity (without enzyme) and 100% activity (with enzyme). The AC50 values were determined from concentration-response data modeled with the standard Hill equation.
Assay buffer: 50 mM citric acid (titrated with potassium phosphate to pH 5.0), 100 mM potassium chloride, 10 mM sodium chloride, 1 mM magnesium chloride, 0.01% Tween-20.
1536-well assay protocol:
(1) Add 2 ul/well of spleen homogenate (27 ug final)
(2) Add 23 nL compounds in DMSO solution. The final titration was 0.5 nM to 58 uM.
(3) Add 2 ul of substrate (1 mM final)
(4) Incubate at 37C for 40 min.
(5) Add 2 ul stop solution (1M NaOH and 1M Glycine mixture, pH 10)
(6) Detect the assay plate in a ViewLux plate reader (PerkinElmer) with Ex=365 nm and Em=440nm.
Keywords: Glucocerebrosidase, beta-glucosidase, Gaucher Disease, pharmacological chaperone, chaperone therapy, high throughput screening, glucocerebrosidase inhibitor, MLSMR, MLSCN, NIH Roadmap, qHTS and NCGC
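Further: 0% = full enzyme activity and -100% = no enzyme basal.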

SMILES	activity change, negative = inhibition
CC(C)C(=O)NC(Sc1ccccc1)C(Cl)(Cl)Cl (centres undefined)	inactive: 1.69%
O=P(Nc1nccs1)(c1ccccc1)c1ccccc1	inactive: -1.72%
c1nnnn1CCn1cnnn1	inactive: 6.7%
CCC(C)(OOC(C)(C)C)OOC(C)(C)C	inactive: -1.78%
O=[As](O)(c1ccccc1)c1ccc(O)cc1	inactive: -25.4%
O=[N+]([O-])c1ccc(O)c(/C=N/Nc2ccc([N+](=O)[O-])cc2[N+](=O)[O-])c1	inactive: -4.26%
O=[N+]([O-])c1ncn(CCn2cnc([N+](=O)[O-])n2)n1	inactive: -1.19%
CC(=O)NC(SC(=S)N(C)C)C(Cl)(Cl)Cl (centres undefined)	inactive: 6.7%
O=C(OC1CN2CCC1CC2)c1cccc(Cl)c1 (centres undefined)	inactive: -3.45%
C(Cc1nn[nH]n1)Cc1nn[nH]n1	inactive: 22.6%
Nc1ccc([As](=O)(O)c2ccc([N+](=O)[O-])cc2)cc1	inactive: 0.858%
O=P(Nc1ccccn1)(c1ccc(Br)cc1)c1ccc(Br)cc1	inactive: 9.28%
CN(C)C1(CNC(=O)c2ccc(Cl)c(S(N)(=O)=O)c2)CCCCC1	inactive: -18%
Cc1cc([N+](=O)[O-])cc([N+](=O)[O-])c1O	inactive: -3.37%
CN(C(=O)Cc1ccccc1)[C@H]1CC[C@@]2(CCCO2)C[C@@H]1N1CCCC1	inactive: -4.02%
O=P(Nc1nc2ccccc2s1)(c1ccccc1)c1ccccc1	inactive: 22.1%
C[C@H]1OP(=O)(Oc2ccccc2)[C@H](O)[C@H](O)[C@H]1N=[N+]=[N-] (some centres undefined)	inactive: 0.595%
CN(C(=O)Cc1ccc(Cl)c(Cl)c1)[C@@H]1CCCC[C@@H]1N1CCCC1	inactive: -7.96%
O=C(OC1CN2CCC1CC2)c1ccccc1 (centres undefined)	inactive: -2.18%
CCC(=O)N1C2C3N(C(=O)CC)C1C1N(C(=O)CC)C(C(N1C(=O)CC)N3C(=O)CC)N2C(=O)CC	inactive: -2.24%
COC(=O)c1cc2c(s1)N=C(c1ccccc1)N(C)P2(=O)N1CCOCC1 (centres undefined)	inactive: 0.235%
Cc1ccc(OP(=O)(Nc2ccccn2)Oc2ccc(C)cc2)cc1	inactive: 13.3%
CC(=O)NC(SC(=S)N(CC(C)C)CC(C)C)C(Cl)(Cl)Cl (centres undefined)	inactive: -0.14%
O=c1c2cc([N+](=O)[O-])ccc2[nH]c2c([N+](=O)[O-])cc([N+](=O)[O-])cc12	inactive: -6.57%
CN(C)C(=O)Oc1noc2ccccc12	inactive: 3.35%

SMILES	activity change, negative = inhibition
c1ccc(-c2nn[nH]n2)c(-c2nn[nH]n2)c1	inactive: 13.4%
CCOC(=O)NC(Sc1ccccc1)C(Cl)(Cl)Cl (centres undefined)	inactive: 2.9% [at 12.8 µM]
Cc1ccc(NP(=O)(Oc2cccc(C)c2)Oc2cccc(C)c2)nc1	inactive: 5.7%
CCNC(=S)/N=C(\N)N[N+](=O)[O-]	inactive: 6.63%
O=C(NC1CCS(=O)(=O)C1)NP(=S)(Oc1ccccc1)Oc1ccccc1 (centres undefined)	inactive: 5.22%
C[C@H]1OP(=O)(Oc2ccccc2)C[C@@H]2O[C@@H]21 (some centres undefined)	inactive: 4.18%
C[C@@H]1C=CCP(=O)(Oc2ccccc2)O1 (some centres undefined)	inactive: -1.55%
CC(=O)c1ccc(N2CC2c2ccncc2)cc1 (centres undefined)	inactive: 4.51%
CC(=O)Nc1ccc([As](=O)(O)O)c(O)c1	inactive: -1.9%
CC(=O)Nc1ccc(Oc2c([N+](=O)[O-])cc([N+](=O)[O-])cc2[N+](=O)[O-])cc1	inactive: -1.79%
O=P1(Nc2nc3ccc(Cl)cc3s2)COc2ccccc2O1 (centres undefined)	inactive: -9.96%
CC(C)(C)C(=O)NC(Sc1ccccc1)C(Cl)(Cl)Cl (centres undefined)	inactive: 9.27%
Oc1ccccc1CNc1ccccn1	inactive: 10.2% [at 12.8 µM]
O=C(NC(Sc1ccncn1)C(Cl)(Cl)Cl)c1ccccc1 (centres undefined)	inactive: -27.2%
Cc1c2non([O-])c-2c(C)[n+](=O)[n+]1[O-]	inactive: -1.61%
Nc1cc(N)c2nonc2c1[N+](=O)[O-]	inactive: 0.773%
CC(C)CC(=O)NC(Sc1ccc(Cl)cc1)C(Cl)(Cl)Cl (centres undefined)	inactive: 28.1%
CN(C(=O)Cc1ccc(Cl)c(Cl)c1)[C@H]1CCCC[C@H]1N1CCCC1	inactive: -6.98%
Cc1ccc(N/C(=N/P(=O)(N2CCOCC2)N2CCOCC2)N2CCOCC2)cc1	inactive: 1.62%
NC(=O)c1cc([N+](=O)[O-])cc([N+](=O)[O-])c1N	inactive: -2.79%
CN1CCCC(OC(=O)C(c2ccccc2)c2ccccc2)C1 (centres undefined)	inactive: 9.24%
Clc1ccc(Cl)c(NC2=NCC(CBr)S2)c1 (centres undefined)	inactive: -4.88%
Cc1ccc(OP(=O)(Nc2nccs2)Oc2ccc(C)cc2)cc1	inactive: 6.87%
O=[N+]([O-])c1cc([N+](=O)[O-])c(CCN2CCOCC2)c([N+](=O)[O-])c1	inactive: -11.7%
Nc1cccc2ccc([As](=O)(O)O)cc12	inactive: 12.9%

SMILES	activity change, negative = inhibition
CCN(N=Nc1nonc1N)c1nonc1N	inactive: 7.89%
O=P(Nc1nc2ccc(Cl)cc2s1)(c1ccccc1)c1ccccc1	inactive: 23.3%
CC(=O)Nc1ccc([As](=O)(O)O)cc1	inactive: 5.83%
O=C(O)c1ccccc1[As](=O)(O)O	inactive: 3.1%
Cc1cc(SC(NC(=O)c2ccc(F)cc2)C(Cl)(Cl)Cl)ncn1 (centres undefined)	inactive: -1.23%
CCOP(=O)(Nc1ccccc1)OCC	inactive: 1.19% and inactive: 8.39%
Cc1ccc(NP(=O)(Oc2ccccc2F)Oc2ccccc2F)nc1	inactive: 12.4%
CC(C)(C)C(=O)NC(Sc1ccncn1)C(Cl)(Cl)Cl (centres undefined)	inactive: 24.1%
O=C(O)CNc1ccc([As](=O)(O)O)cc1	inactive: 1.24%
O=[N+]([O-])c1cccc(NC2=NCC(CBr)S2)c1 (centres undefined)	inactive: -9.53%
O=C(Nc1cc([As](=O)(O)O)ccc1O)c1ccccc1	inactive: 1.15%
CCN(/C(=N/P(=O)(N1CCOCC1)N1CCOCC1)N1CCOCC1)c1ccc(OC)cc1	inactive: -4.47%
Nc1ccc([As](=O)(O)c2ccc(N)cc2)cc1	inactive: -18.3%
C[N+]1=C2C=CC=CC=C2SC12C([N+](=O)[O-])=CC([N+](=O)[O-])=C[C-]2[N+](=O)[O-] (centres undefined)	inactive: -10.3%
CC(=O)C1=CCCC2CCC1N2 (centres undefined)	inactive: -13.3% and inactive: 1.18%
CC(C)=N/N=C(\N)N[N+](=O)[O-]	inactive: 8.6%
COc1ccc(C2=NCC(CBr)S2)cc1 (centres undefined)	inactive: -19.8%
Cc1ccc(NP(=O)(Oc2ccccc2)Oc2ccccc2)nc1	inactive: -7.92%
CCc1nc2c(n1)c1c(non1O)c1c2no[n+]1[O-]	inactive: -5.92%
O=[N+]([O-])c1cccc2n[nH]nc12	inactive: -11.3%
CC(=O)N1C2C3N(C(C)=O)C1C1N(C(C)=O)C(C(N1C(C)=O)N3C(C)=O)N2C(C)=O	inactive: 2.27%
O=C(OC1CN2CCC1CC2)c1cccc([N+](=O)[O-])c1 (centres undefined)	inactive: -8.6%
CCOC(=O)c1ccc(NC(=O)C(C)(CCl)SC)cc1 (centres undefined)	inactive: -22.9%
CCC(C)N(CC(C)C)C(=S)SC(NC(C)=O)C(Cl)(Cl)Cl (centres undefined)	inactive: 4.7%
COP1(=S)c2c(C)nn(CCC#N)c2N=C(c2ccc(F)cc2)N1C (centres undefined)	inactive: -6.58%

SMILES	activity change, negative = inhibition
O=C(COc1ccccc1)OC1CN2CCC1CC2 (centres undefined)	inactive: -3.23%
O=C(Nc1ccncc1[N+](=O)[O-])c1ccc([N+](=O)[O-])cc1[N+](=O)[O-]	inactive: 0.194%
CCOC(=O)Nc1cccc([As](=O)(O)O)c1	inactive: -18.4%
O=P(Nc1ccccn1)(c1cccc2ccccc12)c1cccc2ccccc12	inactive: 13.9%
Cc1cc(SC(NC=O)C(Cl)(Cl)Cl)ncn1 (centres undefined)	inactive: 5.54%
CN(N=O)C(=N)N[N+](=O)[O-]	inactive: -1.87%
O=[N+]([O-])c1ccc(Nc2ccc(Oc3ccc([N+](=O)[O-])cc3[N+](=O)[O-])cc2)c([N+](=O)[O-])c1	inactive: -11.8%
CCOC(=O)Nc1ccc([As](=O)(O)O)c(O)c1	inactive: -1.98%
CCCCOc1ccc(C(=O)NCC2(N3CCCCC3)CCCCC2)cc1OC	inactive: -5.25%
ClCCSc1nnc(-c2cccnc2)o1	inactive: 10.5%
CC(C)NC(=O)NP(=O)(Oc1ccccc1)Oc1ccccc1	inactive: -1.41%
CCN(CC)C(=S)SC(NC=O)C(Cl)(Cl)Cl (centres undefined)	inactive: 3.35%
C[As](=O)(O)c1cccc(C(=O)O)c1	inactive: -13.8%
O=[As](O)(c1ccc(O)cc1)c1ccccc1O	inactive: 20%
Cc1ccc(OP(=O)(Nc2ccc([N+](=O)[O-])cn2)Oc2ccc(C)cc2)cc1	inactive: 3.57%
Cc1ccc2nc3c(c(C)c2c1)CC(C(Cl)Cl)S3 (centres undefined)	inactive: 16.9%
COc1ccc(N/C(=N/P(=O)(N2CCOCC2)N2CCOCC2)N2CCOCC2)cc1	inactive: -4.08%
Cc1c2c(nc3ccccc13)SC(C(Cl)Cl)C2 (centres undefined)	inactive: 9.85%
O=C(OC1CN2CCC1CC2)C12CC3CC(CC(C3)C1)C2 (centres undefined)	inactive: -15.3%
Cc1cc(=O)[nH]c(N[N+](=O)[O-])n1	inactive: -4.68%
COc1ccc2nc(NP(=O)(c3ccccc3)c3ccccc3)sc2c1	inactive: 0.597%
COc1cc(I)ccc1[As](=O)(O)O	inactive: -15.7%
Nc1cccc2c([As](=O)(O)O)cccc12	inactive: 7.21%
Cc1ccc(NCCc2c([N+](=O)[O-])cc([N+](=O)[O-])cc2[N+](=O)[O-])cc1	inactive: -1.33%
